The values that follow are results of earlier work, collected in patent US20060019934A1, “Anti-HIV-1 activity of betulinol derivatives” (priority 2004, published 2006).

The conditions of the data set: Sun et al. 1998; cited from earlier work.

`C=C(C)[C@@H]1CC[C@]2(COC(C)=O)CC[C@]3(C)[C@H](CC[C@@H]4[C@@]5(C)CC[C@H](OC(C)=O)C(C)(C)[C@@H]5CC[C@]43C)[C@@H]12` [betulin diacetate]: the therapeutic index result is “low”. Consider `C=C(C)[C@@H]1CC[C@]2(C(=O)O)CC[C@]3(C)[C@H](CC[C@@H]4[C@@]5(C)CCC(=O)C(C)(C)[C@@H]5CC[C@]43C)[C@@H]12` [betulonic acid], for which the therapeutic index entry is “low”.
